Experimental data from patent publication US20260144239A1, “Immune Cell-Engrafted Non-Human Animals and Non-Human Animal Models” (LAPIX Therapeutics, Inc., priority 2022, published 2026).

Assays:
[1] = test system: engrafted mice; assay: Immunogenicity in engrafted mice (NRGS mice with human immune system), antibody titers by ELISA; type: in vivo, mouse; conditions: antigen Day 29 and Day 36, blood Day 43
Experimental: (§1) Three healthy human donors were used to generate three engrafted mice designated HD1, HD2 and HD3. On Day 29 and Day 36, HD1, HD2 and HD3 were administered FVIII. The same amounts of antigen were administered to three C57B/6 control mice on the same date. Two weeks later (on Day 43), blood from each mouse was collected. Titers of mouse anti-FVIII antibodies, human anti-FVIII antibodies, mouse anti-GAA antibodies and human anti-GAA antibodies were measured using ELISA (FIGS. 8A-8B).
as §1, with “GAA.” for “FVIII.”, “anti-GAA” for “anti-FVIII”, “anti-FVIII” for “anti-GAA”, “8C-8D).” for “8A-8B).”
(§2) Healthy human donors were used to generate eight engrafted mice. On Day 29 and Day 36, the engrafted mice were administered IFN-β. […] Titers of mouse anti-IFN-β antibodies and human anti-IFN-β antibodies were measured using ELISA.
(§3) Healthy human donors were used to generate 11 engrafted mice. […] Titers of mouse anti-AAV9 antibodies and human anti-AAV9 antibodies were measured using ELISA.

[2] = test system: humans; conditions: in vivo; cited from earlier work
[3] = test system: C57B/6 control mice; assay: Immunogenicity in C57B/6 control mice, antibody titers by ELISA; type: in vivo, mouse; conditions: six (FVIII), 5 (GAA), three (IFN-β), three (AAV9) C57B/6 mice
Experimental: as §1
as §1, with “GAA.” for “FVIII.”, “anti-GAA” for “anti-FVIII”, “anti-FVIII” for “anti-GAA”, “8C-8D).” for “8A-8B).”
as §2, §3

## IFN-β: biologic antigen administered to engrafted and C57B/6 mice
[1]; 12 (FVIII), 14 (GAA), eight (IFN-β), 11 (AAV9) engrafted mice
  percent of engrafted mice that developed human antibodies to the administered antigen: 25%
[1]
  engrafted mice that developed mouse antibodies to the administered antigen: None
[2]
  clinically reported immunogenicity rate in humans: 28-47%
[3]
  percent of C57B/6 mice that developed mouse antibodies to the administered antigen: 100%
